In patent publication US20180125068A1, “OCTANOIC, NONANOIC AND DECANOIC FATTY ACIDS WITH PYRETHROID ADULTICIDES” (priority 2016, published 2018):
Like-named read-outs stand apart in the source and are kept apart here.

Test system: Cimex lectularius resistant to deltamethrin (Lex8 strain)
Settings: observed, d-Phenothrin 0.375% alone
Description: Synergy was calculated using Abbott's synergy equation described in Levy Y et al., The joint action of fungicides in mixtures: comparison of two methods for synergy calculation, Bulletin OEPP/EPPO Bulletin, 1986, 16, 651-657. Specifically, a ratio greater than 1.0 of observed to expected percent mortality for combinations of two pesticides is evidence of synergy. Expected % mortality was calculated using the formula % Cexp=A+B−[…] where A is percent mortality of A. aegypti exposed to C8, 9, 10, B is percent mortality of A. aegypti exposed to permethrin and Cexp is expected percent mortality of A. aegypti exposed to a combination of C8, 9, 10 and permethrin.
The actives were suspended in 1 milliliter oil-based ultra-low volume sprays and sprayed into the wind tunnel. This exposed 10 adult male beg bugs to the spray. Each test was replicated three times. 1, 2, 3 and 4-day mortality of the bed bugs was then observed.

For `CC(C)=CC1C(C(=O)OCc2cccc(Oc3ccccc3)c2)C1(C)C` (stereo not drawn) [d-Phenothrin, Sumithrin (d-phenothrin)], the “% Mortality” value (3 days) was 13.3% and the “% Mortality” value (4 days) was 13.3%.
